Experimental data reported in patent US11267861B2, “Peptide-oligourea foldamer compounds and methods of their use” (UREKA SARL, priority 2016, dated 2022).

Assays:
[1] = target: T1, mouse GLP-1 receptor (Mus musculus, UniProt O35659); test: GLP-1 functional assay: agonist activity by cAMP production (HTRF) in βTC6 cells; type: cell-based
T1 construct: mouse GLP-1 receptor endogenously expressed in βTC6 cells; endogenous in cells; host or cells: βTC6 cells
T1 sequence (O35659 22-463): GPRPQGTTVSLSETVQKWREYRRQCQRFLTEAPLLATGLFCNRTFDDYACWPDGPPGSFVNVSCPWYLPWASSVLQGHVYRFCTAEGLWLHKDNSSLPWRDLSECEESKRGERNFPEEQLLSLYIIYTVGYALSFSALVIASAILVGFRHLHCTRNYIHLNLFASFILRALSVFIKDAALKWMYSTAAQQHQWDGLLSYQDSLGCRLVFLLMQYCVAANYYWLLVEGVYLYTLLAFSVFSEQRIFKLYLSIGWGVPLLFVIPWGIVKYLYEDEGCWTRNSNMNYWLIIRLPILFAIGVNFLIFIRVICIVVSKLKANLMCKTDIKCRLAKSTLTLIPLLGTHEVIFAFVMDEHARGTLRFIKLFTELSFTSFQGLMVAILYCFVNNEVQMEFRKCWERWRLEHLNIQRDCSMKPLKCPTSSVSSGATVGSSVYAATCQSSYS
Procedure: For stimulated control measurement, separate assay wells contain 10 nM GLP-1(7-37) were utilized.
Following incubation, the cells were lysed and the fluorescence acceptor (D2-labeled cAMP) and fluorescence donor (anti-cAMP antibody labeled with europium cryptate) were added. […] The results are expressed as a percent of the control response to 10 nM GLP-1(7-37). The standard reference agonist is GLP-1(7-37), which was tested in each experiment at several concentrations to generate a concentration-response curve from which its EC50 value was calculated.
HTRF (Homogeneous Time-Resolved Fluorescence) principle. The HTRF technology is based on time resolved fluorescence energy transfer (TR-FRET), which occurs between long-lived fluorophore Europium or Terbium Cryptates, and EuK or Tb respectively, as a donor and the allophycocyanin XL665, d2 or Red as acceptor. Many compounds and proteins present in biological fluids or serum are naturally fluorescent, and the use of conventional, prompt fluorescence leads to serious limitations in assay sensitivity. The use of long-lived fluorophore combined with time-resolved detection (a delay between excitation and emission detection) minimizes prompt fluorescence interference.

[2] = target: T2, Carboxypeptidase A (EC 3.4.17.1) (Bos taurus, UniProt P00730); test: Enzymatic degradation by carboxypeptidase A; type: in vitro ADME, bovine; settings: same results = more stable than the native peptides
T2 construct: from bovine pancreas (Fluka), milky suspension; purchased Fluka; host or cells: bovine pancreas
T2 sequence (P00730 111-419): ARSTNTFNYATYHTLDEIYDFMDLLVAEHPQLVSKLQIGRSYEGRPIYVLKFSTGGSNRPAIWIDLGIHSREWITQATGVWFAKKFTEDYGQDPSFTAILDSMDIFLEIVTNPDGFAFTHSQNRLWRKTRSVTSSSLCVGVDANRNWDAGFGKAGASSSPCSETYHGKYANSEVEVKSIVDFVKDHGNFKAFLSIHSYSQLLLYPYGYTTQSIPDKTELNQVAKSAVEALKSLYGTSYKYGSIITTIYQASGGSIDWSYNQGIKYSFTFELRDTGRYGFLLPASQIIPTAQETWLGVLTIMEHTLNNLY
Procedure: Enzymatic Degradation—Carboxypeptidase A. Carboxypeptidase A (EC 3.4.17.1) from bovine pancreas (Fluka), milky suspension, stock solution in PBS buffer (pH 7.5, 0.01 M). For each degradation experiment, stock solutions of the peptidic substrate and the enzyme were made using phosphate-buffered saline (PBS) buffer solution. The enzyme concentrations of the stock solutions were selected such that the standard substrates were totally degraded after a maximum of 15 min (ratio 2[enzyme]:100[substrate]). PBS buffer solution (10 mM sodium phosphate, 0.14 M NaCl) was prepared as follows: Solution A (4.75 mL of 0.2 M NaH2PO4.H2O), solution B (20.25 mL of 0.2 M Na2HPO4.H2O), NaCl (4.5 g) and H2O (25 mL) were stirred for 15 min at room temperature and diluted tenfold with H2O. The pH was adjusted either with NaOH (1 M) or with HCl (1 M) prior to use. A solution of the substrate in PBS buffer (pH 7.5, 0.01 M) and a solution of the required amount of enzyme, were mixed and incubated at 25° C. for 4 hours. Degradation was stopped with concentrated AcOH, and buffer solution was added so that the total volume reached 150 μL.
(§1) The resulting mixture was analyzed by reversed-phase HPLC. A mixture of CH3CN/H2O (0.1% TFA) was used as eluent. Gradients were 10% CH3CN to 100% CH3CN in 10 minutes. The flow rate, for all separations, was 1 mL·min^−1.

[3] = system: chymotrypsin; test: Enzymatic degradation by chymotrypsin; type: in vitro ADME; settings: compared to native peptide GLP-1 (SEQ ID NO: 1)
Procedure: Enzymatic Degradation—Chymotrypsin and Trypsin. Stock solutions of the compounds were prepared at a concentration of 400 μM in a solution of 50 mM HEPES buffer, 50 mM NaCl, 0.05% Tween-80, pH 8.0. Stock solution of the chymotrypsin or trypsin was prepared at a concentration of 250 μg/mL in water. Stability of compounds to chymotrypsin was assessed by conducting a protease reaction in a 96-well plates at room temperature. Each well received 10 μL of HEPES buffer, 38 μL of the solution of compound to be assayed (final concentration 304 μmol/L), and 2 μL of the enzyme solution (final concentration 10 μg/mL) for a total volume of 50 μL. Each compound was also incubated in the absence of the enzyme (12 μL of HEPES buffer and 38 μL of the compound).
At the indicated time (5, 10, 15, 30 and 60 minute(s)) a 10 μL aliquot was removed from each experimental reaction and pipet into 100 μL of 1% TFA solution to quench the reaction (t=0 minutes was determined using the reaction without enzyme). A portion of the quenched reaction solution was analyzed by HPLC. The time course of peptide degradation was determined by integrating the area of each peak in a series of HPLC traces. Another portion of the quenched reaction was analyzed by LC-MS for identification of each peptide fragment.

[4] = target: T3, Leucyl aminopeptidase (EC 3.4.11.1) (Sus scrofa, UniProt P28839); test: Enzymatic degradation by leucyl aminopeptidase; type: in vitro ADME, porcine; settings: compared to the native peptides
T3 construct: from porcine kidney (Sigma); chromatographically purified suspension; purchased Sigma; host or cells: porcine kidney
T3 sequence (P28839 1-519): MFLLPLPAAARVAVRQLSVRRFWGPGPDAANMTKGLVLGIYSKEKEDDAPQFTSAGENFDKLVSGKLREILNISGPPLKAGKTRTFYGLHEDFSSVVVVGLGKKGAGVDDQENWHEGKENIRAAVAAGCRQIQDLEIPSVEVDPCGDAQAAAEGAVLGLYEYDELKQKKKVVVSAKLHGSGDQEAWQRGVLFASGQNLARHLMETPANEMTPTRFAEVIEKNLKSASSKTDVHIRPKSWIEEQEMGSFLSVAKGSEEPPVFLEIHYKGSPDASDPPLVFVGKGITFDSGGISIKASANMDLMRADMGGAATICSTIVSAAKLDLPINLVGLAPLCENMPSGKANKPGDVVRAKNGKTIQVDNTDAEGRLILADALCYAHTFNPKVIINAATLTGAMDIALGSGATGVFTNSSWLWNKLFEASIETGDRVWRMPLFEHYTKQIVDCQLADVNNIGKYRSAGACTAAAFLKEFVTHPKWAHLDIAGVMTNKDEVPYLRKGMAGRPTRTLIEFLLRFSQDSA
Procedure: Enzymatic Degradation—Leucyl Aminopeptidase. Leucyl aminopeptidase (EC 3.4.11.1) from porcine kidney (Sigma); chromatographically purified suspension in 2.9 M (NH4)2SO4, 0.1 M Tris, 5 mM MgCl2 solution, pH 8.0; stock solution in PBS buffer (pH 7.2, 0.01 M). For each degradation experiment, stock solutions of the peptidic substrate and the enzyme were made using phosphate-buffered saline (PBS) buffer solution. […] The pH was adjusted either with NaOH (1 M) or with HCl (1 M) prior to use. A solution of the substrate in PBS buffer (pH 7.2, 0.01 M) and a solution of the required amount of enzyme, were mixed and incubated at 25° C. for 4 hours. Degradation was stopped with concentrated AcOH, and buffer solution was added so that the total volume reached 150 μL.
as §1

## CC[C@H](C)[C@H](NC(=O)[C@H](Cc1ccccc1)NC(=O)[C@H](CCC(=O)O)NC(=O)[C@H](CCCCN)NC(=O)[C@H](C)NC(=O)[C@H](C)NC(=O)[C@H](CCC(N)=O)NC(=O)CNC(=O)[C@H](CCC(=O)O)NC(=O)[C@H](CC(C)C)NC(=O)[C@H](Cc1ccc(O)cc1)NC(=O)[C@H](CO)NC(=O)[C@H](CO)NC(=O)[C@@H](NC(=O)[C@H](CC(=O)O)NC(=O)[C@H](CO)NC(=O)[C@@H](NC(=O)[C@H](Cc1ccccc1)NC(=O)[C@@H](NC(=O)CNC(=O)[C@H](CCC(=O)O)NC(=O)[C@H](C)NC(=O)[C@@H](N)Cc1c[nH]cn1)[C@@H](C)O)[C@@H](C)O)C(C)C)C(=O)N[C@@H](C)CNC(=O)N[C@@H](Cc1c[nH]c2ccccc12)C(=O)N[C@@H](CC(C)C)C(=O)N[C@H](C(=O)N[C@@H](CCCCN)C(=O)NCC(=O)N[C@@H](CCCNC(=N)N)C(=O)NCC(=O)O)C(C)C [Compound 2]
[1]
  EC50: 1.5 nM
[2]
  stability with carboxipeptidase A compared to native peptides: same results
[3]
  half-life in the chymotrypsin degradation test compared to native peptide: longer half-life
[4]
  stability (half-life) with leucyl aminopeptidase compared to native peptides: more stable than the native peptides
